Values quoted from earlier work as cited in article PMC3858179 (2008).

Molecular target: T1, T. gondii DHFR (Toxoplasma gondii, UniProt Q07422)
T1 sequence (Q07422 1-610): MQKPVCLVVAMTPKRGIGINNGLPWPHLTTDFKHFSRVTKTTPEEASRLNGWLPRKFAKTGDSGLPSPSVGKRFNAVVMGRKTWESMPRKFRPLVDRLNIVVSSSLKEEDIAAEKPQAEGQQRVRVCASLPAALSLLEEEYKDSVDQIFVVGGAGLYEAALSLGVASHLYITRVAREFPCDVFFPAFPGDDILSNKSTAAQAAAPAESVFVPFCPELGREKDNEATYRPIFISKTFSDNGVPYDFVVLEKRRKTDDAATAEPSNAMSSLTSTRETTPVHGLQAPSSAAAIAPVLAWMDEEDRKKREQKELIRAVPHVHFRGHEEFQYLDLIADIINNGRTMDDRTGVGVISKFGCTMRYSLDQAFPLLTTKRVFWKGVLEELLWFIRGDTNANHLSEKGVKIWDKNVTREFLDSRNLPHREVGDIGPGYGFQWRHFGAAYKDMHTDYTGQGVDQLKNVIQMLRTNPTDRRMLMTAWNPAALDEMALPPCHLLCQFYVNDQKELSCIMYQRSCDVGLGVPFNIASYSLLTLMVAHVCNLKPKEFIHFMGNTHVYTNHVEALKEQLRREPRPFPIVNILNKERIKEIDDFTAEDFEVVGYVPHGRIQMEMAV
Conditions: cited from earlier work

SMILES: COc1ccc(OC)c(Sc2[nH]c3nc(N)nc(N)c3c2C)c1 [Compound 6]
- fold more potent than 10 (T. gondii DHFR): 19 fold
- fold more potent than TMP against T. gondii DHFR: 16 fold
